Bioassay records as filed in PubChem.
PGC1a acetyl inh: inhibitors of PGC1a acetylation signal, primary screen, cell-based, U2OS, AlphaScreen, inhibitor mode; 350,000 compounds, 0.17% hits; inhibition, % at 15.6 µM; AID 651687, 2012; AlphaScreen anti-acetyl-lysine; with virally co-expressed GCN5 acetyltransferase;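 active = every replicate shows inhibition of at least 40%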
TRPM1 prom inh: inhibitors of MITF-dependent TRPM1 promoter reporter, primary screen, cell-based, SK-MEL-5, single point, luciferase. SK-MEL-5 TRPM1 promoter luciferase, 24 h. 330,000 compounds, 0.83% hits. AID 488899, 2010. inhibition, % at 12.5 µM;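 active = mean inhibition across replicates of 60% or more, whatever share of single replicates reaches that level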
MITF act: activators of MITF-driven TRPM1 promoter reporter, primary screen, cell-based, SK-MEL-5, luciferase, single point | SK-MEL-5 TRPM1-promoter luciferase, 24 h; % of positive control, neutral wells = 0 | activation, % at 12.5 µM | 300,000 compounds, 0.75% hits | AID 588334, 2011;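 active = mean activation of at least 80% with every replicate also reaching 80%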
miR-122 sensor: miR-122 Renilla sensor signal increase in Huh7, primary screen, miR-122 inhibitor project, cell-based, single point, plate reader; Huh7 miR-122 Renilla luciferase sensor, 48 h; neutral wells = 0, positive control = 100; activation (reporter increase), % at 12.5 µM; 340,000 compounds, 0.3% hits;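 active = mean replicate activation score at least 90 and every replicate individually at or above 90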;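 note: higher luciferase means less miR-122 activity so hits act as miR-122 inhibitors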
Wnt act: Wnt/beta-catenin pathway activators, primary screen, cell-based, plate reader, single point. Wnt/beta-catenin reporter cell assay, activator. activation, % at 9.35 µM. 300,000 compounds, 1.2% hits; in the data active = activation above about 30%, passing the limit was not always enough
UUG fidelity: yeast start codon fidelity modulation. S. cerevisiae UUG-firefly luciferase reporter, luminescence/redox ratio. activity score, % at 18.7 µM. 0.13% of 350,000 active;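 active = replicate mean at a twofold rise or more, about +100% in these data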;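 also: firefly luciferase made from a UUG start codon reports start codon fidelity; reporter light over untreated wells divided by growth signal over untreated wells; some hits fall short of that in this replicate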
Each line names hits and unclear results; the compound was inactive in the other large screens. Shown are actives, neighbours in structure and some others; about 2.1% of the full set was active somewhere.

CC1=CC2OC3CC4OC(=O)C=CC=CC(C(C)O)OCC(O)C(C)CC(=O)OCC2(CC1O)C4(C)C31CO1 (configuration not stated)	PGC1a acetyl inh 80.9, TRPM1 prom inh 89.8 (no result: MITF act, UUG fidelity)
Fc1cccc(F)c1-c1nc(-c2ccc(Cl)cc2)no1	Wnt act 64.5 (no result: MITF act, miR-122 sensor, UUG fidelity)
CC(C)CC#Cc1ccc([C@H]2[C@H](CO)N3CCCCN(C(=O)Cc4ccccn4)C[C@@H]23)cc1	none (no result: TRPM1 prom inh, MITF act, Wnt act)
CC(C)[C@H]1C(=O)O[C@H](C(C)C)C(=O)N(C)[C@@H](C(C)C)C(=O)O[C@H](C(C)C)C(=O)N(C)[C@@H](C(C)C)C(=O)O[C@H](C(C)C)C(=O)N1C	TRPM1 prom inh 77.5 (no result: Wnt act)
C/C=C/c1ccc([C@@H]2[C@@H](CO)N3CCCCN(C(=O)Cc4ccncc4)C[C@H]23)cc1	none (no result: TRPM1 prom inh, MITF act, Wnt act)
Cc1ccccc1CN1Cc2cnnn2-c2ccccc2C1C#N (configuration not stated)	TRPM1 prom inh 98.0
Cc1ccccc1C(=O)N1Cc2cnnn2-c2ccccc2C1C#N (configuration not stated)	none
CC(=O)c1c(C)n(C2CCCCC2)c2ccc(O)cc12	PGC1a acetyl inh 55.3 (no result: miR-122 sensor, UUG fidelity)
CC(=O)OC1C(O)C(C)OC(OC2C(OC(=O)C3CCC4C(C3)OC3(CC(OC(=O)/C=C/c5ccccc5)C(C)CO3)C43CO3)OC(C)C(O)C2OC(C)=O)C1O (configuration not stated)	PGC1a acetyl inh 77.7, TRPM1 prom inh 87.0 (no result: MITF act, UUG fidelity)
Cc1cc(C(=O)Nc2ccccc2)nn1C(C)(C)C	Wnt act 36.6 (no result: MITF act)
Cc1cc(C(=O)Nc2ccc3c(c2)OCCO3)nn1C(C)(C)C	Wnt act 55.7 (no result: MITF act, UUG fidelity)
O=C(Cc1cccnc1)N1CCCCN2[C@@H](CO)[C@H](c3ccc(C#CC4CC4)cc3)[C@@H]2C1	none (no result: TRPM1 prom inh, MITF act, Wnt act)
COC(=O)[C@H]1[C@H](CO)[C@H]2Cn3c(ccc(-c4ccccc4)c3=O)[C@@H]1N2CC1CCOCC1	none (no result: TRPM1 prom inh, MITF act, Wnt act, UUG fidelity)
CCN(CC)c1ccc(/C=C2\C(=O)NC(=S)N(C)C2=O)o1	Wnt act 37.3 (no result: MITF act)
CCN(CC)c1ccc(C=C2C(=O)N(C)C(=S)N(C)C2=O)o1	none
CC(C)n1c(O)c(C2c3cc(Cl)ccc3Oc3[nH]c(=O)n(C(C)C)c(=O)c32)c(=O)[nH]c1=O (configuration not stated)	TRPM1 prom inh 102.3
CC(=O)c1c(O)n(-c2cccc(Cl)c2)c(=O)[nH]c1=O (tested in a mixture with another compound)	none (no result: PGC1a acetyl inh, MITF act, miR-122 sensor, UUG fidelity)
COC(=O)[C@H]1[C@H](CO)[C@H]2Cn3c(cccc3=O)[C@@H]1N2C(=O)C1CCCC1	none (no result: PGC1a acetyl inh, TRPM1 prom inh, MITF act, Wnt act)
Cn1c(O)c(Cc2ccc(OCc3ccccc3)cc2)c(=O)n(C)c1=O	Wnt act 33.3
N#Cc1cccc(-c2ccc([C@@H]3[C@@H](CO)N4CCCCN(C(=O)Cc5ccncc5)C[C@H]34)cc2)c1	none (no result: TRPM1 prom inh, MITF act, Wnt act)
CCOc1ccc(-c2cc(C(=O)N3CCC4(CC3)OCCO4)c3ccccc3n2)cc1	MITF act 100.0 (no result: miR-122 sensor, UUG fidelity)
COc1ccc(-c2cc(C(=O)N3CCC4(CC3)OCCO4)c3ccccc3n2)cc1	none (no result: UUG fidelity)
CC=Cc1ccc2n(c1=O)C[C@@H]1[C@@H](CO)[C@H](C(=O)OC)[C@H]2N1S(=O)(=O)c1ccccc1C (mixture of isomers)	none (no result: TRPM1 prom inh, MITF act, Wnt act, UUG fidelity)
CC(=O)OC(C)(C)/C=C/C(=O)C(C)(O)C1C(O)CC2(C)C3CC=C4C(CC(O)C(=O)C4(C)C)C3(C)C(=O)CC12C (configuration not stated)	PGC1a acetyl inh 70.3, TRPM1 prom inh 88.4 (no result: MITF act, UUG fidelity)
CC(=O)OC(C)(C)/C=C/C(=O)[C@](C)(O)[C@H]1[C@H](O)C[C@@]2(C)[C@@H]3CC=C4[C@H](C[C@H](O)C(=O)C4(C)C)[C@]3(C)C(=O)C[C@]12C	PGC1a acetyl inh 88.1, TRPM1 prom inh 88.3 (no result: Wnt act)
CC(=O)OC(C)(C)/C=C/C(=O)C(C)(O)C1[C@H](O)C[C@@]2(C)C3CC=C4C(CC[C@@H](O)C4(C)C)[C@]3(CO)C(=O)C[C@]12C (some centres not stated)	TRPM1 prom inh 84.9 (no result: PGC1a acetyl inh, miR-122 sensor)
CN1[C@H](CO)[C@H]2c3ccccc3NC[C@H]21	none (no result: TRPM1 prom inh, MITF act, Wnt act)
CC1=C(N2CC2)C(=O)C(CO)=C(N2CC2)C1=O	TRPM1 prom inh 106.2 (no result: MITF act, UUG fidelity)
Cc1ccccc1-c1ccc([C@@H]2[C@H](CO)N3CCCCN(C(=O)Cc4ccccn4)C[C@@H]23)cc1	none (no result: PGC1a acetyl inh, TRPM1 prom inh, MITF act, Wnt act)
C/C=C/c1ccc(C2[C@@H]3CN(Cc4cccnc4)C[C@H]2N3)cc1 (some centres not stated)	none (no result: TRPM1 prom inh, MITF act, miR-122 sensor, Wnt act, UUG fidelity)
COc1ccc(C(=O)N/N=C/C23CC[C@@H](O)CC2(O)CC[C@@H]2[C@@H]3CCC3(C)C(C4=CC(=O)OC4)CCC23O)cc1 (some centres not stated)	none (no result: UUG fidelity)
C[C@@H]1O[C@@H](O[C@H]2C[C@@H](O)[C@]3(CO)[C@H]4[C@H](O)C[C@]5(C)[C@@H](C6COC(=O)C6)CC[C@]5(O)[C@@H]4CC[C@]3(O)C2)[C@H](O)[C@H](O)[C@H]1O (some centres not stated)	TRPM1 prom inh 67.9, miR-122 sensor 113.6
CC1OC(OC2CC(O)C3(CO)C4C(O)CC5(C)C(C6=CC(=O)OC6)CCC5(O)C4CCC3(O)C2)C(O)C(O)C1O (configuration not stated)	PGC1a acetyl inh 80.6, TRPM1 prom inh 86.7
COc1ccc(C#Cc2ccc([C@H]3[C@H](CO)N4CCCCN(C(=O)Cc5cccnc5)C[C@@H]34)cc2)cc1	none (no result: TRPM1 prom inh, MITF act, Wnt act)
Cc1cc(C)cc(OCCOc2cccc(C=C3C(=O)NC(=O)NC3=O)c2)c1	none (no result: PGC1a acetyl inh, MITF act, miR-122 sensor)
Cc1ccc(OCCOc2cccc(C=C3C(=O)NC(=O)NC3=O)c2)cc1	Wnt act 36.7 (no result: PGC1a acetyl inh, miR-122 sensor)
CC[C@@H](O)C[C@H]1CCC[C@@]2(C[C@@H]3OC(=O)/C=C/[C@@](C)(O)[C@@H](O)[C@H](C)[C@@H](O)[C@H](OC4CCC(N(C)C)C(C)O4)[C@@H](O)[C@](C)(O)CCCCC/C=C/[C@@H]4CC(C)(C)O[C@@]4(O)C[C@H](O2)[C@H]3C)O1 (some centres not stated)	TRPM1 prom inh 75.8 (no result: MITF act, UUG fidelity)
COC(=O)[C@@H]1[C@@H](CO)[C@@H]2Cn3c(ccc(C4=CCCCC4)c3=O)[C@H]1N2C(=O)CC1CC1	none (no result: TRPM1 prom inh, MITF act, Wnt act, UUG fidelity)
O=C(Cc1cccnc1)N1CCCCN2[C@H](C1)[C@@H](c1ccc(/C=C/c3ccccc3)cc1)[C@@H]2CO	none (no result: TRPM1 prom inh, MITF act, Wnt act)
CC(=O)OC[C@]12CCC(C)=C[C@H]1O[C@@H]1[C@H](O)[C@@H](OC(C)=O)[C@@]2(C)[C@]12CO2	PGC1a acetyl inh 85.5, TRPM1 prom inh 91.4
